Target: T1, Pyruvate kinase (Staphylococcus aureus (strain MRSA252)) (UniProt Q6GG09)
T1 sequence (whole entry): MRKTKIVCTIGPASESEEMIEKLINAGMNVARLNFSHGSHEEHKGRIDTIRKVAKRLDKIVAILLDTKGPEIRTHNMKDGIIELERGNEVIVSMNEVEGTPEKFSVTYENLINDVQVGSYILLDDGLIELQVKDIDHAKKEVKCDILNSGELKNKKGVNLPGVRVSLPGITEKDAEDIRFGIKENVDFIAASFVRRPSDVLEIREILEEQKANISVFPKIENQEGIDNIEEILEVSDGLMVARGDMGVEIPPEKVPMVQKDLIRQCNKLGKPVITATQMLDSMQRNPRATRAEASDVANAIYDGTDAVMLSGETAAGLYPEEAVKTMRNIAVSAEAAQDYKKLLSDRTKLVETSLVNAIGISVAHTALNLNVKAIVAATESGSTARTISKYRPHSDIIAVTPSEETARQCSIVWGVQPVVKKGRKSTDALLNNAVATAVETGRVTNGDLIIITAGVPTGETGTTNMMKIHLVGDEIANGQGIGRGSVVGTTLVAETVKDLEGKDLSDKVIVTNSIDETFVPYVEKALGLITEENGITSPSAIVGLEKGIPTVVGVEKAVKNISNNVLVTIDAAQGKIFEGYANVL
Experiment: Inhibition of methicillin-resistant Staphylococcus aureus 252 pyruvate kinase at 10 uM by LDH assay
Conditions: Staphylococcus aureus subsp. aureus MRSA252
How it was run: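 MRSA pyruvate kinase activity was measured by a previously described procedure. IC50 was calculated from triplicate 15-point titrations, or averaged over n such determinations. Where no IC50 was obtained, the value is % inhibition at the highest concentration tested.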

Structure (SMILES) | inhibition
CC(=NNC(=O)c1cc(Br)ccc1O)c1cc2cc(Br)ccc2n1C (mixture of isomers) | 91.5%
CC(=NNC(=O)c1cc(Br)ccc1O)c1nc2ccccc2n1C (mixture of isomers) | 94.5%

Source: ChEMBL document CHEMBL2202977, “Optimization and structure-activity relationships of a series of potent inhibitors of methicillin-resistant Staphylococcus aureus (MRSA) pyruvate kinase as novel antimicrobial agents” (Bioorg Med Chem, 2012)
